In patent publication US20240383950A1, “RECOMBINANT GLYCAN BINDING PROTEINS AND ITS USE” (UNICHEM LABORATORIES LIMITED, priority 2021, published 2024):

B1: SEQ ID NO. 3: SEQ ID NO. 2 re-engineered: Serine at 1st position, Glycine at 76th position, Cysteine added at carboxy terminal end (protein)
chain: SYKITVRVYQTNPDAFFHPVEKTVWKYANGGTWTITDDQHVLTMGGSGTSGTLRFHADNGESFTATFGVHNYKRWGDIVTNLAADETGMVINQQYYSQKNREEARERQLSNYQVKNAKGRNFQIVYTEAEGNDLHANLIIGC
B2: SEQ ID NO. 4: SEQ ID NO. 2 re-engineered: Serine at 1st, Glycine at 76th, Serine added at 142nd and Cysteine at 143rd position (protein)
chain: SYKITVRVYQTNPDAFFHPVEKTVWKYANGGTWTITDDQHVLTMGGSGTSGTLRFHADNGESFTATFGVHNYKRWGDIVTNLAADETGMVINQQYYSQKNREEARERQLSNYQVKNAKGRNFQIVYTEAEGNDLHANLIIGSC

Columns and labels:
[1] = Solubility of expressed protein in production medium, SDS PAGE; type: physicochemical; details: for solubility in production medium: SDS PAGE
Description: Solubility of expressed protein of SEQ ID NO. 3 and 4 in production medium (induced at 18° C. with 0.25 mM IPTG) was evaluated using SDS PAGE analysis.

[2] = Expression analysis of soluble protein at timepoints during fermentation, SDS-PAGE; type: physicochemical; details: for solubility in production medium during fermentation stages: various timepoints, SDS-PAGE
Description: The cells were grown in fermentation medium under controlled conditions and induced with suitable inducer. Harvesting was done at different timepoints and analysed using SDS-PAGE for expression of soluble proteins.

[3] = induced at 18° C. with 0.25 mM IPTG
[4] = batch 1-overnight, induced at 18° C. with 0.25 mM IPTG

Molecule	solubility in production medium [1, 3]	Band % [1, 4] [%]	Band % ([1]; batch 1-pellet) [%]	Band % ([1]; batch 1-supernatant) [%]	Band % ([1]; batch 2-overnight) [%]	Band % ([1]; batch 2-pellet) [%]	Band % ([1]; batch 2 supernatant) [%]	Abs. Quant. ([2]; Log 45 hrs Pellet) [ug/10 uL]	Abs. Quant. ([2]; Log 45 hrs supernatant) [ug/10 uL]	Abs. Quant. ([2]; Log 48 hrs Pellet) [ug/10 uL]	Abs. Quant. ([2]; Log 48 hrs supernatant) [ug/10 uL]	Abs. Quant. ([2]; Log 51 hrs Pellet) [ug/10 uL]	Abs. Quant. ([2]; Log 51 hrs supernatant) [ug/10 uL]	Abs. Quant. ([2]; Log 54 hrs Pellet) [ug/10 uL]	Abs. Quant. ([2]; Log 54 hrs supernatant) [ug/10 uL]	solubility in production medium during fermentation stages [2]	other results
B1	confirmed	56.0	49.6	47.2	52.5	51.1	55.4	0.33	4.66	1.52	3.71	0.40	4.29	1.30	4.32	confirmed	Relative % ([2]; Log 45 hrs Pellet): 6.6%; Relative % ([2]; Log 45 hrs supernatant): 93.4%; Relative % ([2]; Log 48 hrs Pellet): 29%; Relative % ([2]; Log 48 hrs supernatant): 71%; Relative % ([2]; Log 51 hrs Pellet): 8.5%; Relative % ([2]; Log 51 hrs supernatant): 91.5%; Relative % ([2]; Log 54 hrs Pellet): 23%; Relative % ([2]; Log 54 hrs supernatant): 77%; Abs. Quant. ([2]; Log 57 hrs Pellet): 1.73 ug/10 uL; Relative % ([2]; Log 57 hrs Pellet): 26%; Abs. Quant. ([2]; Log 57 hrs supernatant): 4.87 ug/10 uL; Relative % ([2]; Log 57 hrs supernatant): 74%; Abs. Quant. ([2]; Log 60 hrs Pellet): 1.84 ug/10 uL; Relative % ([2]; Log 60 hrs Pellet): 24%; Abs. Quant. ([2]; Log 60 hrs supernatant): 5.81 ug/10 uL; Relative % ([2]; Log 60 hrs supernatant): 76%
B2	confirmed	15.64	18.14	20.41	19.72	16.40	18.49	0.34	3.51	0.22	3.58	0.19	4.63	1.31	4.33	confirmed	Band % ([1]; batch 3-overnight): 16.57%; Band % ([1]; batch 3-supernatant): 14.55%; Band % ([1]; batch 3 pellet): 10.44%
